System: advanced or recurrent NSCLC with EGFR-sensitive mutations after failure of EGFR-TKI treatment
Test: Phase II clinical trial, antitumor activity study (RECIST v1.1 / irRECIST)
Details: with pemetrexed + carboplatin
[1] = RECIST v1.1, among all 40 patients
[2] = irRECIST, number of patients of 40

Substance: toripalimab: anti-PD-1 humanized IgG4 mAb with light and heavy chains of SEQ ID NOs: 9 and 10; described in WO 2014206107
- ORR, 240 mg toripalimab group (240 mg Q3W, n=10): 50.0%
- ORR, 360 mg toripalimab group (360 mg Q3W, n=30): 50.0%
- ORR, patients with erlotinib as first-line EGFR TKI treatment (4 patients): 75.0%
- ORR, patients with icotinib as first-line EGFR TKI treatment (16 patients): 62.5%
- ORR, patients with EGFR L858R mutant (17 patients): 58.8%
- ORR, patients with gefitinib as first-line EGFR TKI treatment (20 patients): 35.0%
- ORR, patients with exon 19 deletion (23 patients): 43.5%
- patients with a reduction in tumor size compared to baseline (36 patients): 90.0%
- overall survival HR, L858R mutation vs exon 19 deletion (95% CI: 0.16-1.42, p=0.18): 0.48
- patients with partial remissions [1]: 20 patients
- patients with stable disease [1]: 15 patients
- overall diagnosed ORR (RECIST v1.1, n = 40, 95% CI: 33.8-66.2): 50%
- DCR (RECIST v1.1, n = 40, 95% CI: 73.2-95.8): 87.5%
- patients died (all 40 patients, as of Jul. 10, 2020, median follow-up 7.2 months): 32.5%
- treatments discontinued due to disease progression (all 40 patients, as of Jul. 10, 2020): 55.0%
- ORR using irRECIST criteria (irRECIST, 95% CI: 36.1-68.5): 52.5%
- DCR using irRECIST criteria (irRECIST, 95% CI: 73.2-95.8): 87.5%
- PRs using irRECIST criteria [2]: 21
- SDs using irRECIST criteria [2]: 14
- median PFS (n = 40, 95% CI: 4.8-8.4): 7.0 months
- median OS (n = 40, 95% CI: 18.0-NE months): not reached
- ORR at week 12 (n = 40): 30.0%
- PFS and overall survival, patients with L858R mutation compared with exon 19 deletion: longer
- median DOR: 7.0 months

Reference: patent US20230322930A1, “USE OF AN ANTI-PD-1 ANTIBODY AND A CYTOTOXIC ANTICANCER DRUG IN TREATMENT OF NON-SMALL CELL LUNG CANCER” (SHANGHAI JUNSHI BIOSCIENCES CO., LTD., priority 2020, published 2023)
